Tests used:
Akt = Akt phosphorylation in CTL-EN whole cell lysates, Western blot; type: cell-based; conditions: IL-3
Procedure: (a) CTL-EN cells expressing IL-3Ra and either wtβc or βcHSRSLP→EFAAAA were starved for 12 hours in DMEM containing 0.5% FCS and then stimulated with 50 ng/ml IL-3 for the indicated times. Cells were lysed, whole cell lysates were subjected to SDS-PAGE and transferred to a nitrocellulose filter. Filters were immunoblotted and stripped sequentially with anti-phospho Akt pAb (1:500) anti-phosphorylated STAT5 mAb (2 mg/ml), anti-active MAPK pAb (50 ng/ml) and anti-ERK pAb (1 mg/ml) followed by detection with HRP-conjugated anti-rabbit or anti-mouse IgG antibody and ECL. (b) CTL-EN cells expressing IL-3Ra and either wtβc or βcHSRSLP→EFAAAA were starved for 12 hours in DMEM containing 0.5% FCS and stimulated with 50 ng/ml IL-3 for the indicated times. Cells were lysed and JNK was immunoprecipitated. The immunoprecipitates were then washed in 1× JNK buffer (10 mM MgCl2, 10 mM Tris-HCl ph 7.4) and the JNK activity was then analysed in an in vitro kinase assay using g^32PATP and 1 mg GST-jun1-79. Kinase assays were subjected to SDS-PAGE and transferred to a nitrocellulose filter. An autoradiogram of the filters is shown.
To further examine if 14-3-3 binding to βc was involved in regulating other signalling pathways besides the PI 3-kinase pathway, we investigated a number of additional signalling molecules known to be activated in response to IL-3. […]

CTL-EN cells = assay: MTS reduction assay of metabolic activity; type: cell-based; conditions: 0.1% FCS
Procedure: (a) CTL-EN cells expressing IL-3Ra and either wtβc or βcHSRSLP→EFAAAA were washed and then plated in duplicate at 2.5×10^5 cells/ml in DMEM containing 0.1% FCS and either 10 ng/ml IL-3, 10 ng/ml IL-2 or long/ml IL-3 and 5 mM LY294002. Viable cells were counted using the trypan blue exclusion method after 4 days. The results shown are typical of 3 experiments. (b) CTL-EN cells expressing IL-3Ra and either wtβc or βcHSRSLP→EFAAAA were washed and then plated in triplicate at 5×10^5 cells/ml in DMEM containing 0.1% FCS and either no IL-3, 1 ng/ml IL-3 or 10 ng/ml IL-3. Metabolic activity was measured each day using the CellTiter96 AQueous one solution cell proliferation assay according to the manufacturers instructions. Shown are the raw absorbance values (490 nm) plotted against day for CTL-EN cells expressing wtβc in the presence of no IL-3 (u), 1 ng/ml IL-3 (I) or 10 ng/ml IL3 (n) and CTL-EN cells expressing the βcHSRSLP→EFAAAA mutant in the presence of no IL-3 (u) or 10 ng/ml IL-3 (t).
Loss of cell viability in CTL-EN cells expressing the βcHSRSLP→EFAAAA in response to IL-3 was also reflected in loss of cellular metabolic activity as determined by the MTS reduction assay.
Loss of cell viability in CTL-EN cells expressing the βcHSRSLP→EFAAAA in response to IL-3 was also reflected in loss of cellular metabolic activity as determined by the MTS reduction assay. […]

B1: IL-3: recombinant human IL-3 produced in E. coli (protein, UniProt P08700 20-152, looked up)
Interleukin-3: APMTQTTPLKTSWVNCSNMIDEIITHLKQPPLPLLDFNNLNGEDQDILMENNLRRPNLEAFNRAVKSLQNASAIESILKNLLPCLPLATAAPTRHPIHIKDGDWNEFRRKLTFYLKTLENAQAQQTTLSLAIF
Question: B1 was tested. Which “phosphorylation of Akt” value (Akt; CTL-EN wtβc) did it give?
Answer: Its value is “demonstrated phosphorylation of Akt”.

Question: What about the “phosphorylation of Akt” value (Akt; CTL-EN βcHSRSLP→EFAAAA) of the same molecule?
Answer: The value was “almost completely abolished”.

Question: What about the metabolic activity (CTL-EN cells; CTL-EN wtβc, up to 3 days) of the same molecule?
Answer: The metabolic activity was “maintain appreciable levels of metabolic activity”.

Question: What about the metabolic activity (CTL-EN cells; CTL-EN βcHSRSLP→EFAAAA) of the same molecule?
Answer: Its metabolic activity is “lost metabolic activity”.

Reference: patent publication US20020177166A1, “Binding motif of a receptor” (MEDVET SCIENCE PTY.LTD., priority 2000, published 2002)
